Experimental data as given in patent publication US9169254B2, “Spiroimidazolone derivative” (Chugai Seiyaku Kabushiki Kaisha, priority 2009, dated 2015).

Chains of the proteins cited; added tags and fusions are not shown. Residues count along the entry.
UniProt Q03431, 27-593 limits assumed: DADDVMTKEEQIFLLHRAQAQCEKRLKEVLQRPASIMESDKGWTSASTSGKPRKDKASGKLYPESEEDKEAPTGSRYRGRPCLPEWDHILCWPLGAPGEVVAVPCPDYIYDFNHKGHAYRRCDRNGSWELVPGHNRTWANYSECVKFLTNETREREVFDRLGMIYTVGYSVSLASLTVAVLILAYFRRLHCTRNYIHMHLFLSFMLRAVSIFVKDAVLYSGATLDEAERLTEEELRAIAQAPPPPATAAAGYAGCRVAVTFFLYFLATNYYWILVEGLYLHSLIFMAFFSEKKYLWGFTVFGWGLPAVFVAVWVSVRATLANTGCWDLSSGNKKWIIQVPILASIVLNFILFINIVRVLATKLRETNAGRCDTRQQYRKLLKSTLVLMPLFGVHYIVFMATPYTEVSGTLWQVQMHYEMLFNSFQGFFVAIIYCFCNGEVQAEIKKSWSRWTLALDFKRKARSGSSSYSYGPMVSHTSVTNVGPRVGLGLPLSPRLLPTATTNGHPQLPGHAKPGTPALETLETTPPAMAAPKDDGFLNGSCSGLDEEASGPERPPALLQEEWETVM

Molecular target: human PTH1 receptor (Homo sapiens, UniProt Q03431)
Experiment: In vitro cAMP signal activity in HKRK-B7 cells (LLC-PK1 cells overexpressing the human PTH1 receptor)
Assay type: cell-based
Details: compound at 1×10^−3 M, cAMP produced as percentage of that produced by hPTH(1-34) at 100 nM

For `CC(=O)N(c1ccc(/C=C/S(=O)(=O)N2CCC3(CC2)N=C(c2cccc(OC(F)(F)F)c2)NC3=O)c(C)c1)C1CCN(C)CC1`, the “cAMP production activity (%)” value was 8.3%.

Only a part of the results on these compounds is given; other tests are left out.
